This test can be described thus: Agonist activity at human NOP receptor expressed in CHO cells assessed as forskolin-induced cAMP.

The source of these data is ChEMBL document CHEMBL1143970, “Structure-activity relationships and CoMFA of N-3 substituted phenoxypropyl piperidine benzimidazol-2-one analogues as NOP receptor agonists with analgesic properties” (Bioorg Med Chem, 2008).

Where “and” joins values, the source holds several entries; their conditions need not be identical. Identical values can stand only once.

For orientation: IC50 means the concentration that inhibits the measured activity by half.

For the compound `COc1ccc(C)c(OC(CCN2CCC(n3c(=O)n(Cc4nnc(C)[nH]4)c4ccccc43)CC2)C(C)C)c1` (centres undefined), the IC50 worked out at 506 nM.

For the compound `COc1ccc(C)c(OC(CCN2CCC(n3c(=O)n(Cc4n[nH]c(=O)[nH]4)c4ccccc43)CC2)C(C)C)c1` (centres undefined), the IC50 is 60.4 nM.

On to `COc1ccc(C)c(OC(CCN2CCC(n3c(=O)n(Cn4ccnc4C)c4ccccc43)CC2)C(C)C)c1` (centres undefined), for which the IC50 was 361 nM.

Take `COc1ccc(C)c(OC(CCN2CCC(n3c(=O)n(Cc4ncnn4C)c4ccccc43)CC2)C(C)C)c1` (centres undefined): the concentration for half-maximal inhibition (IC50) stood at 77.9 nM.

For `COc1ccc(C)c(OC(CCN2CCC(n3c(=O)n(Cc4cnccn4)c4ccccc43)CC2)C(C)C)c1` (centres undefined), the IC50 was 468 nM.

As for `COc1ccc(C)c(OC(CCN2CCC(n3c(=O)n(Cc4cocn4)c4ccccc43)CC2)C(C)C)c1` (centres undefined), the IC50 came out at 22.3 nM.

For `COc1ccc(C)c(OC(CCN2CCC(n3c(=O)n(Cc4cccs4)c4ccccc43)CC2)C(C)C)c1` (centres undefined), the IC50 came to 150 nM.

On to `CNC(=O)Cn1c(=O)n(C2CCN(CCC(Oc3cc(OC)ccc3C)C(C)C)CC2)c2ccccc21` (centres undefined), for which the IC50 was 10 nM.

`COc1ccc(C)c(OC(CCN2CCC(n3c(=O)n(Cc4ncco4)c4ccccc43)CC2)C(C)C)c1` (centres undefined): the IC50 was 29.1 nM.

With `COc1ccc(C)c(OC(CCN2CCC(n3c(=O)n(Cc4nc(C)no4)c4ccccc43)CC2)C(C)C)c1` (centres undefined), the IC50 worked out at 394 nM.

For the compound `COc1ccc(C)c(OC(CCN2CCC(n3c(=O)n(Cc4cscn4)c4ccccc43)CC2)C(C)C)c1` (centres undefined), the IC50 is 31.1 nM.

Regarding `COc1ccc(C)c(OC(CCN2CCC(n3c(=O)n(Cc4c[nH]cn4)c4ccccc43)CC2)C(C)C)c1` (centres undefined), the IC50 turned out to be 134 nM.

`COc1ccc(C)c(OC(CCN2CCC(n3c(=O)n(Cc4ncon4)c4ccccc43)CC2)C(C)C)c1` (centres undefined): the IC50 was 32.8 nM.

As for `COc1ccc(C)c(OC(CCN2CCC(n3c(=O)n(Cc4ccsc4)c4ccccc43)CC2)C(C)C)c1` (centres undefined), the IC50 was 193 nM.

Consider `COc1ccc(C)c(OC(CCN2CCC(n3c(=O)n(Cc4ccccn4)c4ccccc43)CC2)C(C)C)c1` (centres undefined), for which the IC50 was found to be 95.4 nM.

Take `COc1ccc(C)c(OC(CCN2CCC(n3c(=O)n(Cc4cccnc4)c4ccccc43)CC2)C(C)C)c1` (centres undefined): the IC50 came out at 330 nM.

With `COc1ccc(C)c(OC(CCN2CCC(n3c(=O)n(Cn4cccn4)c4ccccc43)CC2)C(C)C)c1` (centres undefined), the IC50 was 103 nM.

Consider `COc1ccc(C)c(OC(CCN2CCC(n3c(=O)n(Cc4c(C)noc4C)c4ccccc43)CC2)C(C)C)c1` (centres undefined), for which the IC50 worked out at 187 nM.

As for `COc1ccc(C)c(OC(CCN2CCC(n3c(=O)n(Cc4cc(C)on4)c4ccccc43)CC2)C(C)C)c1` (centres undefined), the IC50 turned out to be 1300 nM.

With `COc1ccc(C)c(OC(CCN2CCC(n3c(=O)n(Cc4ccncc4)c4ccccc43)CC2)C(C)C)c1` (centres undefined), the IC50 came to 816 nM.

In the case of `COc1ccc(C)c(OC(CCN2CCC(n3c(=O)n(Cc4ncn[nH]4)c4ccccc43)CC2)C(C)C)c1` (centres undefined), the IC50 is 11.5 nM and 10.8 nM.

Take `COc1ccc(C)c(OC(CCN2CCC(n3c(=O)n(Cn4ccnc4)c4ccccc43)CC2)C(C)C)c1` (centres undefined): the IC50 was 297 nM.

As to `COc1ccc(C)c(OC(CCN2CCC(n3c(=O)n(Cc4cnn[nH]4)c4ccccc43)CC2)C(C)C)c1` (centres undefined), the concentration for half-maximal inhibition (IC50) is 254 nM.

Regarding `COc1ccc(C)c(OC(CCN2CCC(n3c(=O)n(Cn4cncn4)c4ccccc43)CC2)C(C)C)c1` (centres undefined), the IC50 is 39.5 nM.
